# Assay results taken from patent US9260484B2, “Small molecule composite surfaces as inhibitors of protein-protein interactions” (Ohio State Innovation Foundation, priority 2011, dated 2016).
# Sequences of proteins named here, by UniProt entry; tags and fusion partners are left off.
# UniProt P62942, whole entry: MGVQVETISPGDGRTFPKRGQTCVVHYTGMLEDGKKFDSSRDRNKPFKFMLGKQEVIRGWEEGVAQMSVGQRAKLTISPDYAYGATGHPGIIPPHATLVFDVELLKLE
# Biological target: T1, FKBP (Homo sapiens, UniProt P62942)
# T1 construct: 200 nM recombinant FKBP
# Assay: fluorescence polarization (FA) competition assay for binding to FKBP
# Procedure: To facilitate solid-phase synthesis, an invariant glutamine was added to the C-terminal side of the R^1 residue, for the purpose of backbone peptide cyclization and providing an anchor for attachment to the solid support. For this set of compounds, the dipeptide Ala-Ala was used as the effector domain. The rapalogs were tested for binding to FKBP by a fluorescence polarization competition assay^22,23. SLF^24, was labeled with the fluorescent dye fluorescein^23. Binding of the labeled ligand to FKBP increases its fluorescence anisotropy (FA) values. Addition of an unlabeled ligand to the reaction inhibits the binding of SLF to FKBP and therefore decreases the FA values. […] Subsequently, the IC50 values were converted into KI values based on the Cheng-Prusoff equation.
# A previously reported synthetic ligand of FKBP^46 (SLF in FIG. 2), was labeled with the fluorescent dye fluorescein^20. Binding of the labeled ligand to FKBP increases its fluorescence anisotropy (FA) value.
# The fluorescence polarization based competition assay was performed in a 384-well plate. […] After the addition of the rapalogs as the last component, the binding reactions were incubated for 1 h at room temperature to reach binding equilibrium. Anisotropy values were measured on a FlexStation 3 plate reader (Molecular Devices, Sunnyvale, Calif.).
structure (smiles),measurement,value
C[C@@H]1NC(=O)[C@H](C)NC(=O)[C@H](C)NC(=O)[C@H](CCC(N)=O)NC(=O)C[C@@H](CCc2ccccc2)NC(=O)[C@@H]2CCCCN2C(=O)C(=O)C(C)(C)COC(=O)[C@@H](C)NC(=O)[C@H](C)NC1=O [Compound 2x],Ki,150 ± 30 nM
